Source: ChEMBL document CHEMBL1132146, “Chemical stability and fate of the cytostatic drug ifosfamide and its N-dechloroethylated metabolites in acidic aqueous solutions” (J Med Chem, 1999)

Test: pKa. (dissociation constant) of the compound
Format: physicochemical
Procedure, shortened: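 ³¹P NMR titration at 25 °C in aqueous 0.1 M NaCl to keep ionic strength constant. pH adjusted with NaOH or HCl and measured before and after each spectrum. pKa calculated from the pH dependence of the chemical shift.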

| SMILES | pKa |
| --- | --- |
| NCCCOP(=O)(O)NCCCl | 1.6 |
| O=P(O)(NCCCl)OCCCNCCCl | 1.6 |
